Values quoted from earlier work as cited in patent US20240408145A1, “Gene Therapy” (Ospedale San Raffaele S.r.l., priority 2021, published 2024).

The chains behind the UniProt entries cited, without tags or fusion partners.
UniProt P27361, whole entry, species assumed: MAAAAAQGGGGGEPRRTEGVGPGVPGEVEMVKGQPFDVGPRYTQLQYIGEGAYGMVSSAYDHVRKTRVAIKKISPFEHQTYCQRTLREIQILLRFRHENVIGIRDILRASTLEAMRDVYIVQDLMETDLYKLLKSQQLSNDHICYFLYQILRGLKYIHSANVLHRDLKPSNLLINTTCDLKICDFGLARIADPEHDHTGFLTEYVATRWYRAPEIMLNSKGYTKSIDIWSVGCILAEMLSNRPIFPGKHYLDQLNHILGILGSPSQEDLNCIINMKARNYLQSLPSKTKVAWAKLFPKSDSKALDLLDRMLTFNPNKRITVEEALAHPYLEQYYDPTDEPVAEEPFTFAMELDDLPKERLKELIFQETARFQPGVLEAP
UniProt P28482, whole entry, species assumed: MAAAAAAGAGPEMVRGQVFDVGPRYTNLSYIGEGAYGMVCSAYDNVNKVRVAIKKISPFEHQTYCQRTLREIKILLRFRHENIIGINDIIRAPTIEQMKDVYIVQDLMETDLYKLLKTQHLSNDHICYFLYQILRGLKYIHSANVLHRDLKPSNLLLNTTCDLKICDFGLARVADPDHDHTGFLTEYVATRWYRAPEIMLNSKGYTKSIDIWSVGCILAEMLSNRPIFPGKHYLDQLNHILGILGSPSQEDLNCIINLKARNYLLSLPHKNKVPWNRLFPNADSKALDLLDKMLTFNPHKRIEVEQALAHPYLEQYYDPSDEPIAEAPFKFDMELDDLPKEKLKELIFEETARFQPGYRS

Assays:
[1] = molecular target: ERK1 (Homo sapiens, UniProt P27361); conditions: cited from earlier work
[2] = molecular target: ERK2 (Homo sapiens, UniProt P28482); conditions: cited from earlier work

SMILES: Nc1n[nH]c2nnc(-c3c(-c4ccccc4)nn4ccccc34)cc12 [FR180204, 5-(2-Phenyl-pyrazolo[1,5-a]pyridin-3-yl)-1H-pyrazolo[3,4-c]pyridazin-3-ylamine]
- IC50 [1]: 310 nM
- IC50 [2]: 140 nM
